ChEMBL document CHEMBL5537189 (J Med Chem, 2024)
In brackets after ≈: the same amount, converted by molar mass.

How the values were obtained:
in vitro [1] = settings: Sprague-Dawley, rat, liver microsomes
physchem = settings: water (aqueous)
in vitro [2] = settings: Sprague-Dawley, rat, liver microsomes; remark: listed apart in the source
[3] = biological target: T1, Retinoic acid receptor RXR-beta (Homo sapiens, UniProt P28702)
T1 sequence (P28702 whole entry): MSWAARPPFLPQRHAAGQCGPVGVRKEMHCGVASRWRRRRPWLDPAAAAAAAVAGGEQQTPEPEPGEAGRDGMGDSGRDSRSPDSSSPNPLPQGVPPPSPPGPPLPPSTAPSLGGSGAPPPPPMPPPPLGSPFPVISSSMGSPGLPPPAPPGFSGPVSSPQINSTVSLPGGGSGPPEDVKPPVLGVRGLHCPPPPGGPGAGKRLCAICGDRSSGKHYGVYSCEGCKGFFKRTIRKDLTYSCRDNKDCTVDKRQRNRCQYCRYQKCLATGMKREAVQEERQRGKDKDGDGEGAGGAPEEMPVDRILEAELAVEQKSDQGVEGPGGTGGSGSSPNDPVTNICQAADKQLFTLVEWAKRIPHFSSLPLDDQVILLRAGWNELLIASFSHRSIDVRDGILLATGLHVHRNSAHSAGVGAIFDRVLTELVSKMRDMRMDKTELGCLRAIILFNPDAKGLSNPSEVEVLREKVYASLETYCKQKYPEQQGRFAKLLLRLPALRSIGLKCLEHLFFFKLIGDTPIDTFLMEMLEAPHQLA

half-life at 10 µM (in vitro [1]) [h]	solubility at 24 h (physchem) [µg/mL]	remaining at 1 h, 10 µM (in vitro [2]) [%]	Kd [3] [µM]	Structure (SMILES)
> 2	84 (≈ 232 µM)	79		CC1(C)CCN(c2cc(Cl)nc(OCCC(=O)O)n2)c2ccccc21
	39 (≈ 112 µM)		5	CC1CCc2ccccc2N1c1cc(Cl)nc(OCCC(=O)O)n1 (stereo not given)
